Results from publication PMC11878344 (Angewandte Chemie (International Ed. in English), 2025).
Like-named read-outs stand apart in the source and are kept apart here.

The chains behind the UniProt entries cited, without tags or fusion partners. Where a name states a change or a piece, a line headed by the entry shows the natural chain unless it says otherwise.
UniProt Q99685, whole entry: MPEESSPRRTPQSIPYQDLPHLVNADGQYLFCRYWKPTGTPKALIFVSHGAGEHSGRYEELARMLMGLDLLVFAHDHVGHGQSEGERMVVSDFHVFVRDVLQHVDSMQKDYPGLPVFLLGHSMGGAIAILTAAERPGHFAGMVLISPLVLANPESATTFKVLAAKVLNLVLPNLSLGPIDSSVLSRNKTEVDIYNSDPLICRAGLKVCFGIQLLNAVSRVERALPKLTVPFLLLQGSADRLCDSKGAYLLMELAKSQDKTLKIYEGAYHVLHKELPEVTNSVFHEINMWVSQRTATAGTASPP
UniProt O35678, whole entry: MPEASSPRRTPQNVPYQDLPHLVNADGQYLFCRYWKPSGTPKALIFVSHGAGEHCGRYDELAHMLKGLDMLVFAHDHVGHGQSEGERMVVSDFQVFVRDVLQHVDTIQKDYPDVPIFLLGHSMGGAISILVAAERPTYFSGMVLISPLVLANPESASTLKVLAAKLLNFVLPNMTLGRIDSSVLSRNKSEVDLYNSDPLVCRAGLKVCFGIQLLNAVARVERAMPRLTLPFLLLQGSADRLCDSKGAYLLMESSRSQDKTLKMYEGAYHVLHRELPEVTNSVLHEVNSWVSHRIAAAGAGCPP

Columns and labels:
human MAGL = human MAGL (Homo sapiens, UniProt Q99685); test: In vitro MAGL inhibition assay (2-AG hydrolysis followed by mass spectrometry)
mouse MAGL = mouse MAGL (Mus musculus, UniProt O35678); test: as above
[1] = Fluorescence excitation/absorption and emission maxima; conditions: for λ Abs max / λ Em max: Table S3; for λmax Em (fluorescence emission maximum) / λmax Ex (fluorescence excitation maximum): PBS pH 7.4
[2] = biological target: NanoLuc luciferase MAGL fusion protein in HEK293A cells (Homo sapiens, UniProt Q99685); test: Cellular MAGL NanoBRET target engagement assay
[3] = biological target: MAGL splicing variants in mouse brain proteome (Mus musculus, UniProt O35678); test: In-gel SDS-PAGE fluorescence labeling of mouse brain proteome with irreversible probes
[4] = test system: serine hydrolases of the mouse brain proteome (MAGL, DAGL, FAAH, ABHD6, ABHD12); test: Competitive multiplex ABPP in mouse brain proteome; conditions: 1 μM probe
HT-29 cells = test: Confocal live cell imaging of HT-29 cells; conditions: 0.15 μM, without additional washing steps
[5] = read-out: IC50 hMAGL, Supporting Information Tables S1-S5
[6] = read-out: IC50 mMAGL, Supporting Information Tables S1-S5
[7] = read-out: hMAGL IC50±SD, Table 2, mean of three independent measurements ± SD
[8] = read-out: mMAGL IC50±SD, Table 2, mean of three independent measurements ± SD
[9] = read-out: HEK 293 nanoBRET IC50±SD, Table 2, mean of three independent measurements ± SD

| SMILES | IC50 (human MAGL; [5]) | IC50 (mouse MAGL; [6]) | λ Abs max [1] | λ Em max [1] | IC50 (human MAGL; [7]) | IC50 (mouse MAGL; [8]) | IC50 [2, 9] | λmax Em (fluorescence emission maximum) [1] | λmax Ex (fluorescence excitation maximum) [1] | Probe concentration at which minor off-target protein labeling (approx. 80 kDa) appears [3] | Probe concentration from which MAGL was detected [3] | IC50 (human MAGL; read-out: hMAGL IC50, Table 1, n=1 to 3) | IC50 (mouse MAGL; read-out: mMAGL IC50, Table 1, n=1 to 3) | IC50 ([2]; read-out: HEK293 nanoBRET IC50, Table 1, transfected HEK293 cells, n=1 to 3) | Blocking of serine hydrolase fluorescence signal (selectivity) [4] | MAGL staining (HT-29 cells) |
| --- | --- | --- | --- | --- | --- | --- | --- | --- | --- | --- | --- | --- | --- | --- | --- | --- |
| CC1=CC(C)=[N+]2C1=Cc1ccc(CCC(=O)NCCOc3ccccc3CC3CC4(C3)CN(C(=O)OC(C(F)(F)F)C(F)(F)F)C4)n1[B-]2(F)F |  |  |  |  | 0.91 nM | 0.91 nM | > 1000 nM | 514 nm | 508 nm | greater than 1 μM | ≥ 1 nM |  |  |  |  |  |
| CC1=CC(C)=[N+]2C1=Cc1ccc(CCC(=O)NCCOc3ccccc3CC3CC4(C3)CN(C(=O)N3CC5(COC(=O)N5)C3)C4)n1[B-]2(F)F | 0.125 nM | 0.107 nM |  |  | 0.12 nM | 0.14 nM | 162 nM | 514 nm | 508 nm |  |  |  |  |  | Complete blocking of the fluorescence signal was exclusively observed for MAGL | very specific and selective MAGL staining |

Continued, in another order:

| IC50 (human MAGL; [5]) | IC50 (mouse MAGL; [6]) | λ Abs max [1] | λ Em max [1] | IC50 (human MAGL; [7]) | IC50 (mouse MAGL; [8]) | IC50 [2, 9] | λmax Em (fluorescence emission maximum) [1] | λmax Ex (fluorescence excitation maximum) [1] | Probe concentration at which minor off-target protein labeling (approx. 80 kDa) appears [3] | Probe concentration from which MAGL was detected [3] | IC50 (human MAGL; read-out: hMAGL IC50, Table 1, n=1 to 3) | IC50 (mouse MAGL; read-out: mMAGL IC50, Table 1, n=1 to 3) | IC50 ([2]; read-out: HEK293 nanoBRET IC50, Table 1, transfected HEK293 cells, n=1 to 3) | SMILES | Blocking of serine hydrolase fluorescence signal (selectivity) [4] | MAGL staining (HT-29 cells) |
| --- | --- | --- | --- | --- | --- | --- | --- | --- | --- | --- | --- | --- | --- | --- | --- | --- |
| 10 nM | 31 nM | 552 nm | 570 nm |  |  |  |  |  |  |  |  |  |  | CN1/C(=C/C=C/C2=[N+](CCCCCC(=O)NCCOc3ccccc3COCC3CN(C(=O)N4CC[C@@H]5OCC(=O)N[C@@H]5C4)C3)c3ccccc3C2(C)C)C(C)(C)c2ccccc21 |  |  |
| 8 nM | 51 nM | 503 nm | 512 nm |  |  |  |  |  |  |  |  |  |  | CC1=CC(C)=[N+]2C1=Cc1ccc(CCC(=O)NCCOc3ccccc3COCC3CN(C(=O)N4CC[C@@H]5OCC(=O)N[C@@H]5C4)C3)n1[B-]2(F)F |  |  |
|  |  | 467 nm | 539 nm |  |  |  |  |  |  |  | 3.92 nM | 4.53 nM | 2560 nM | O=C1CO[C@H]2CCN(C(=O)N3CC(COCc4ccccc4OCCNc4ccc([N+](=O)[O-])c5nonc45)C3)C[C@H]2N1 |  |  |
